Assay results: PubChem BioAssay (NCI)
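Interpolation was linear, between the two tested concentrations surrounding the appropriate level; five concentrations were tested over 48 hours in 96-well plates. GI50: concentration for 50% inhibition of growth.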

How the values were obtained:
Assay in all cases: NCI-60 cell line screen, 48 h; in the data active = GI50 below about 0.43 µM; inactive = the rest
MOLT-4 leukemia = tested on: MOLT-4 leukemia
NCI-H322M lung = tested on: NCI-H322M lung
HT29 colon = tested on: HT29 colon
HCC-2998 colon = tested on: HCC-2998 colon
MDA-MB-435 = tested on: MDA-MB-435
TK-10 renal = tested on: TK-10 renal
U251 CNS = tested on: U251 CNS
SNB-75 CNS = tested on: SNB-75 CNS
UACC-257 melanoma = tested on: UACC-257 melanoma
HS 578T breast = tested on: HS 578T breast
SF-295 CNS = tested on: SF-295 CNS
NCI-H522 lung = tested on: NCI-H522 lung
SK-MEL-5 melanoma = tested on: SK-MEL-5 melanoma
SN12C renal = tested on: SN12C renal
SF-268 CNS = tested on: SF-268 CNS
MCF7 breast = tested on: MCF7 breast
BT-549 breast = tested on: BT-549 breast
HOP-62 NSCLC = tested on: HOP-62 NSCLC
OVCAR-8 ovarian = tested on: OVCAR-8 ovarian
OVCAR-3 ovarian = tested on: OVCAR-3 ovarian
EKVX NSCLC = tested on: EKVX NSCLC
ACHN renal = tested on: ACHN renal
NCI-H23 lung = tested on: NCI-H23 lung
OVCAR-4 ovarian = tested on: OVCAR-4 ovarian
CAKI-1 renal = tested on: CAKI-1 renal
PC-3 prostate = tested on: PC-3 prostate
MDA-MB-231 breast = tested on: MDA-MB-231 breast
RXF 393 renal = tested on: RXF 393 renal
CCRF-CEM leukemia = tested on: CCRF-CEM leukemia
UO-31 renal = tested on: UO-31 renal
RPMI-8226 leukemia = tested on: RPMI-8226 leukemia
SNB-19 CNS = tested on: SNB-19 CNS
786-0 renal = tested on: 786-0 renal
NCI-H226 lung = tested on: NCI-H226 lung
NCI/ADR-RES ovarian = tested on: NCI/ADR-RES ovarian
MDA-N = tested on: MDA-N
DU-145 prostate = tested on: DU-145 prostate
COLO 205 colon = tested on: COLO 205 colon
OVCAR-5 ovarian = tested on: OVCAR-5 ovarian
A549 NSCLC = tested on: A549 NSCLC
LOX IMVI melanoma = tested on: LOX IMVI melanoma
M14 melanoma = tested on: M14 melanoma
HCT-116 colon = tested on: HCT-116 colon
MALME-3M melanoma = tested on: MALME-3M melanoma
UACC-62 melanoma = tested on: UACC-62 melanoma
HL-60(TB) leukemia = tested on: HL-60(TB) leukemia
IGROV1 ovarian = tested on: IGROV1 ovarian
K-562 leukemia = tested on: K-562 leukemia
KM12 colon = tested on: KM12 colon
NCI-H460 lung = tested on: NCI-H460 lung
A498 renal = tested on: A498 renal
SF-539 CNS = tested on: SF-539 CNS
SW-620 colon = tested on: SW-620 colon
SK-MEL-2 melanoma = tested on: SK-MEL-2 melanoma
HOP-92 NSCLC = tested on: HOP-92 NSCLC
SR leukemia = tested on: SR leukemia
HCT-15 colon = tested on: HCT-15 colon
T-47D breast = tested on: T-47D breast
SK-OV-3 ovarian = tested on: SK-OV-3 ovarian

Measured: GI50

CN(C(=O)COc1cc(Cl)c(Cl)cc1Cl)[C@@H]1CCCC[C@@H]1N1CCCC1
inactive: MOLT-4 leukemia > 100 µM | NCI-H322M lung > 100 µM | HT29 colon 26 µM | HCC-2998 colon 23.3 µM | MDA-MB-435 = 22.7 µM | TK-10 renal 44.7 µM | U251 CNS 54 µM | SNB-75 CNS > 100 µM | UACC-257 melanoma 23.6 µM | HS 578T breast 72.8 µM | SF-295 CNS 19.4 µM | NCI-H522 lung 53.1 µM | SK-MEL-5 melanoma 17.1 µM | SN12C renal > 100 µM | SF-268 CNS 97.3 µM | MCF7 breast 30.2 µM | BT-549 breast 52.9 µM | HOP-62 NSCLC > 100 µM | OVCAR-8 ovarian > 100 µM | OVCAR-3 ovarian 47.4 µM | EKVX NSCLC > 100 µM | ACHN renal 58.1 µM | NCI-H23 lung 57.7 µM | OVCAR-4 ovarian 39.9 µM | CAKI-1 renal 85.3 µM | PC-3 prostate 42.3 µM | MDA-MB-231 breast 38.3 µM | RXF 393 renal 53.2 µM | CCRF-CEM leukemia 44.9 µM | UO-31 renal 35.8 µM | RPMI-8226 leukemia 32 µM | SNB-19 CNS 88.6 µM | 786-0 renal 37.4 µM | NCI-H226 lung 81.7 µM | NCI/ADR-RES ovarian 95.7 µM | MDA-N 46.5 µM | DU-145 prostate > 100 µM | COLO 205 colon 23 µM | OVCAR-5 ovarian 33 µM | A549 NSCLC 50.2 µM | LOX IMVI melanoma 33.7 µM | M14 melanoma 16.9 µM | HCT-116 colon 45.2 µM | MALME-3M melanoma > 100 µM | UACC-62 melanoma 22.9 µM | HL-60(TB) leukemia 28.3 µM | IGROV1 ovarian 77.4 µM | K-562 leukemia 32.3 µM | KM12 colon 56.2 µM | NCI-H460 lung 33.3 µM | A498 renal 18 µM | SF-539 CNS 61.5 µM | SW-620 colon 80.7 µM | SK-MEL-2 melanoma 22.3 µM | HOP-92 NSCLC > 100 µM | SR leukemia 42.4 µM | HCT-15 colon 43.1 µM | T-47D breast 37.5 µM | SK-OV-3 ovarian > 100 µM
